Target: Neurotensin receptor type 1 (Homo sapiens, UniProt P30989)
Assay: Antagonist activity at NTR1 (unknown origin) expressed in human U2OS cells coexpressing beta-arrestin assessed as inhibition of ML314-induced effect by GFP reporter gene assay
Type: cell-based

By UniProt entry, the sequences of proteins in these tests, tags left out.
UniProt P30989, whole entry: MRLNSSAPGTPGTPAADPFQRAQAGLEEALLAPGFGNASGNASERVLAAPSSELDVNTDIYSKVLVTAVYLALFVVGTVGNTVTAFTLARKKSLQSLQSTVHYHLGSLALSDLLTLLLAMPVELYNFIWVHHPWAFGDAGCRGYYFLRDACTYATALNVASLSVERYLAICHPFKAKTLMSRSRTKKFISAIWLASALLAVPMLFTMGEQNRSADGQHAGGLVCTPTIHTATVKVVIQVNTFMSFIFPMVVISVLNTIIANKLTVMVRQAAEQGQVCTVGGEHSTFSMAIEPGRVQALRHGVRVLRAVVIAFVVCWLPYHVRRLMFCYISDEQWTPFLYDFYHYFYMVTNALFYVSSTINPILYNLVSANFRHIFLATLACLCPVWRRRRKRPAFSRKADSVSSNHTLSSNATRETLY

- inhibition: Dose-dependent effect
Compound: COc1cccc(OC)c1-c1cc(C(=O)NC2(C(=O)O)C3CC4CC(C3)CC2C4)nn1-c1ccc(C(=O)N(C)CCCN(C)C)cc1C(C)C (stereo unspecified)

From ChEMBL document CHEMBL2429761, “Discovery of ML314, a Brain Penetrant Non-Peptidic β-Arrestin Biased Agonist of the Neurotensin NTR1 Receptor” (ACS Med Chem Lett, 2013)
